This note sets out measurements from PubChem BioAssay AID624288 (National Center for Advancing Translational Sciences (NCATS), 2012).

The structures appear in SMILES notation. Only a part is listed here, and it is no random draw. Inconclusive results are not listed. Activity calls are given as the source filed them. Calls come from the whole dose curve; cell line not stated here.
% is set by controls: 0 for no effect and ±100 for the full control effect.

The nature of this experiment: qHTS for Antagonists of gsp, the Etiologic Mutation Responsible for Fibrous Dysplasia/McCune-Albright Syndrome: qHTS. Note: nearly all actives have a fitted effect of over 65% in size. To be noted: gsp-mutant cells, cAMP HTRF, 30 min; at 76.9 µM (top of the series) unless noted. On the technique in general: In qHTS, concentration-response curves come from the screen itself.
In the case of `O=[N+]([O-])c1cccc2n[nH]nc12`, the activity change, negative = inhibition was inactive: -1.66%. As for `O=[N+]([O-])c1ncn(CCn2ncnc2[N+](=O)[O-])n1`, the activity change, negative = inhibition was inactive: 2.75%.

On to `CC(C)(C)C(=O)NC(Sc1ccncn1)C(Cl)(Cl)Cl` (centres undefined), for which the activity change, negative = inhibition was inactive: 11.4%. For `O=C(O)CNc1ccc([As](=O)(O)O)cc1`, the activity change, negative = inhibition was inactive: 1.89%. With `O=[N+]([O-])c1cccc(NC2=NCC(CBr)S2)c1` (centres undefined) the figure was inactive: 6.08%; with `COC(=O)C1(C)COP(=O)(Nc2ccccc2)OC1` (centres undefined), inactive: 0.803%; with `O=P1(N(CCCl)CCCl)OCCCS1` (centres undefined), inactive: 7.87%. With `Nc1ccc2c(ccc3cccnc32)n1.O=[N+]([O-])c1cc([N+](=O)[O-])c(O)c([N+](=O)[O-])c1` the figure was inactive: 10.5%; with `CP(=O)(OC12CC3CC(CC(C3)C1)C2)OC12CC3CC(CC(C3)C1)C2`, inactive: -3.24%. Take `O=C(Nc1cc([As](=O)(O)O)ccc1O)c1ccccc1`: the activity change, negative = inhibition is inactive: 8.26%. Under `CCOC(=O)c1ccc(NP(C)(=O)Oc2ccc(Cl)cc2)cc1` (centres undefined) stands inactive: 11.2%.

With `CP(=O)(OCCOc1ccccc1)OCCOc1ccccc1`, the activity change, negative = inhibition is inactive: -3.14%. Under `CP(=O)(Nc1ccc(Cl)cc1Cl)Oc1ccccc1` (centres undefined) stands inactive: 7.43%; under `CCCCCCCCCCCCCCCC1C[N+](C)(C)CCOP(C)(=O)O1` (centres undefined), inactive: 2.69%; under `Nc1cccc2ccc([As](=O)(O)O)cc12`, inactive: 0.984%.

Take `CCN(N=Nc1nonc1N)c1nonc1N`: the activity change, negative = inhibition is inactive: -5.33%. As for `Cc1cc(C)cc(OP(C)(=O)Nc2cccc(C(F)(F)F)c2)c1` (centres undefined), the activity change, negative = inhibition is inactive: 5.99%. `CCCC1OP(N)(=O)OCC1CC` (centres undefined): the activity change, negative = inhibition is inactive: 8.8%.

Regarding `O=C(O)c1ccccc1[As](=O)(O)O`, the activity change, negative = inhibition was inactive: 14.2%.

Consider `CC(=O)Nc1ccc([As](=O)(O)O)cc1`, for which the activity change, negative = inhibition was inactive: 11.4%. Consider `COc1ccc(OP(C)(=O)Nc2ccccc2Br)cc1` (centres undefined), for which the activity change, negative = inhibition was inactive: 8.54%. Under `CN(C(=O)Cc1ccc(Cl)c(Cl)c1)[C@H]1CCCC[C@@H]1N1CCCC1` stands inactive: 5.22%; under `Cc1ccc(NP(=O)(Oc2ccccc2F)Oc2ccccc2F)nc1`, inactive: 1.89%.

With `COc1ccccc1OP(C)(=O)Nc1ccc(C)c(C)c1` (centres undefined), the activity change, negative = inhibition was inactive: 14.5%.

`CCOP(=O)(Nc1ccccc1)OCC`: the activity change, negative = inhibition is inactive: -0.835%. For `Cc1cc(SC(NC(=O)c2ccc(F)cc2)C(Cl)(Cl)Cl)ncn1` (centres undefined), the activity change, negative = inhibition is inactive: 6.95%.

Take `O=C(NC(Sc1ccncn1)C(Cl)(Cl)Cl)c1ccccc1` (centres undefined): the activity change, negative = inhibition is inactive: 12.2%. With `Oc1ccccc1CNc1ccccn1` the figure was inactive: 5.7%; with `O=[N+]([O-])c1cc([N+](=O)[O-])c(Nc2ccccn2)c([N+](=O)[O-])c1`, inactive: -26.9%; with `CC(C)CC(=O)NC(Sc1ccc(Cl)cc1)C(Cl)(Cl)Cl` (centres undefined), inactive: -4.11%.

Turning to `Nc1cc(N)c2nonc2c1[N+](=O)[O-]`, the activity change, negative = inhibition was inactive: 5.14%. `Cc1c(NP(C)(=O)Oc2ccc(C(C)C)cc2)c(=O)n(-c2ccccc2)n1C` (centres undefined): the activity change, negative = inhibition was inactive: -1.31%. Under `CCc1ccc(OP(C)(=O)O)cc1` stands inactive: 3.31%; under `COc1ccccc1OP(C)(=O)Nc1ccc(C)cc1C` (centres undefined), inactive: 1.58%. For the molecule `CP(=O)(Nc1ccccn1)Oc1ccccc1` (centres undefined), the activity change, negative = inhibition is inactive: -1.5%. As for `COc1ccccc1OP(C)(=O)Nc1ccc(Br)cc1` (centres undefined), the activity change, negative = inhibition is inactive: -0.861%. As to `CN(C(=O)Cc1ccc(Cl)c(Cl)c1)[C@H]1CCCC[C@H]1N1CCCC1`, the activity change, negative = inhibition was inactive: -2.7%. For `NC(=O)c1cc([N+](=O)[O-])cc([N+](=O)[O-])c1N`, the activity change, negative = inhibition is inactive: 3.85%. With `CN(C)CCOC(=O)C(O)(c1ccccc1)C1CCCC1` (centres undefined), the activity change, negative = inhibition was inactive: 0.857%. For `Clc1ccc(Cl)c(NC2=NCC(CBr)S2)c1` (centres undefined), the activity change, negative = inhibition was inactive: -1.11%.

As to `CN1CCCC(OC(=O)C(c2ccccc2)c2ccccc2)C1` (centres undefined), the activity change, negative = inhibition was inactive: 11%.

On to `Cc1ccc(OP(=O)(Nc2nccs2)Oc2ccc(C)cc2)cc1`, for which the activity change, negative = inhibition is inactive: 6.77%. On to `COc1ccc(OP(C)(=O)Nc2ccccn2)cc1` (centres undefined), for which the activity change, negative = inhibition is inactive: 4.82%.

Turning to `COc1ccccc1OP(=O)(Nc1ccc(C)cn1)Oc1ccccc1OC`, the activity change, negative = inhibition is inactive: 0.991%.
